## Antibody variant affinities, Ab-14 light chain, assay B

Reference: Li et al. 2023, doi:10.1038/s41467-023-39022-2. File: FLAb, binding data.

Antigen: PDVDLGDISGINAS, a 14-residue peptide of the SARS-CoV-2 spike HR2 region.

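The starting antibody came from a phage panning campaign against this peptide. Designed CDR sequences, proposed from the first random library and measured here. Their group label is 14L_En_Gibbs (En: ensemble of fine-tuned language models; Gibbs: Gibbs sampling). In AlphaSeq, yeast of one mating type display the scFv and yeast of the other type display the target. After mating in shaken culture at 30 °C for 16 h, diploids were selected and their barcode pairs sequenced. Each replicate has its own calibration line, from reference interactions of the BCL2 family. Mating was done six times.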

Parent scFv Ab-14: VH joined to VL by a 15-residue (Gly4Ser)3 linker. Changes lie in the light chain CDRs alone.
VH: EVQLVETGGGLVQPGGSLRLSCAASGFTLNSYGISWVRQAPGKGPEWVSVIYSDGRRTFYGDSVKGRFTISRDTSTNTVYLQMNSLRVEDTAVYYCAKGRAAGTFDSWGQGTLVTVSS
VL: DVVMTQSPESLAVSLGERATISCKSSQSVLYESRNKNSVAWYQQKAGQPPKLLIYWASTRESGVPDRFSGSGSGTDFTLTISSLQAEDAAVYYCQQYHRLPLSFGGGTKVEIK

Variants are written as CDR1, CDR2 and CDR3 of the light chain (limits as in the source). Parent: KSSQSVLYESRNKNSVA, WASTRES, QQYHRLPLS.
Numbers give log10(Kd / nM), so 0 is 1 nM and 3 is 1 µM. Smaller is tighter.
Where no diploid with the target was found in that replicate, the entry reads "n.d.": below detection, most likely a poor binder, though not proof of it.
The parent sequence was in this pool as ten entries: three were never detected, three once, and four in most replicates, with averages from 0.34 to 2.37.

{"CDR-L1": "SLMDNIWVEDTYRNAIA", "CDR-L2": "DRNVRAK", "CDR-L3": "QQYHRLPLS", "log10 Kd, replicates": "0.77 / 1.05 / 0.89 / 0.63 / 0.77 / 1.29", "empty controls": "1/18 (2.27)"}
{"CDR-L1": "SLRLKELGMSYNANQVA", "CDR-L2": "DSENRIK", "CDR-L3": "QQYYRLPLT", "log10 Kd, replicates": "-0.14 / -0.28 / 0.13 / -0.18 / -0.11 / -0.16", "empty controls": "0/18"}
{"CDR-L1": "IFEQGQWNGQQNQNAMA", "CDR-L2": "NGHTRMQ", "CDR-L3": "QQYFKLPLV", "log10 Kd, replicates": "0.36 / 0.33 / -0.07 / 0.25 / 0.16 / 0.35", "empty controls": "3/18 (1.87)"}
{"CDR-L1": "SLVQEKSVGDKNAGNIA", "CDR-L2": "AGNQLSV", "CDR-L3": "QQYNRLPLS", "log10 Kd, replicates": "0.61 / 0.42 / 0.67 / 0.32 / 0.32 / 0.40", "empty controls": "1/18 (3.07)"}
{"CDR-L1": "LIMKFMSQDGSARNNIA", "CDR-L2": "GDTKLAQ", "CDR-L3": "QHYYRLPLS", "log10 Kd, replicates": "n.d. / n.d. / n.d. / n.d. / n.d. / n.d.", "empty controls": "0/18"}
{"CDR-L1": "NLSGHQYNNSQKKNSIA", "CDR-L2": "EDNNIRL", "CDR-L3": "QQYHRLPFM", "log10 Kd, replicates": "2.45 / n.d. / n.d. / n.d. / 3.24 / n.d.", "empty controls": "1/18 (2.10)"}
{"CDR-L1": "IVTEAQNENSLYTNNIA", "CDR-L2": "NGENTLA", "CDR-L3": "QQYFRLPLQ", "log10 Kd, replicates": "0.39 / 0.37 / 0.20 / 0.61 / 0.71 / 0.79", "empty controls": "0/18"}
{"CDR-L1": "FFSLIQDSVGEAKNSIA", "CDR-L2": "ERNTKAH", "CDR-L3": "QQYSRLPLV", "log10 Kd, replicates": "1.19 / 1.41 / 0.95 / 1.02 / 1.23 / 1.31", "empty controls": "2/18 (3.25)"}
{"CDR-L1": "KLGAWMYWQTEAKYAIA", "CDR-L2": "QDEMRVH", "CDR-L3": "QQYDRLPLM", "log10 Kd, replicates": "n.d. / n.d. / n.d. / n.d. / n.d. / n.d.", "empty controls": "0/18"}
{"CDR-L1": "SIDEYQWYHEAVNQNIA", "CDR-L2": "DAEAVRP", "CDR-L3": "QQYAMLPLS", "log10 Kd, replicates": "0.61 / 0.64 / 0.52 / 0.89 / 0.71 / 0.80", "empty controls": "1/18 (2.93)"}
{"CDR-L1": "RFTEHLLMLENKIYAIA", "CDR-L2": "NATKTME", "CDR-L3": "QQYFRLPFA", "log10 Kd, replicates": "0.76 / 0.62 / 0.83 / 1.03 / 0.52 / 0.88", "empty controls": "0/18"}
{"CDR-L1": "KVSIFMLTMDNAWSSIA", "CDR-L2": "NSAATRT", "CDR-L3": "QQYQRLPLS", "log10 Kd, replicates": "n.d. / 3.62 / n.d. / n.d. / n.d. / n.d.", "empty controls": "0/18"}
{"CDR-L1": "MFQEYVQGVEQDYNNIA", "CDR-L2": "ENSYASR", "CDR-L3": "QQYFRLPLA", "log10 Kd, replicates": "n.d. / n.d. / n.d. / n.d. / n.d. / n.d.", "empty controls": "0/18"}
{"CDR-L1": "QLSQAYRVGENWKESIA", "CDR-L2": "HGSVRVE", "CDR-L3": "QCYVRLPLS", "log10 Kd, replicates": "0.27 / 0.75 / 0.17 / 0.65 / 0.49 / 0.28", "empty controls": "0/18"}
{"CDR-L1": "RVQINSGHSDMHWKSIA", "CDR-L2": "SASIRAD", "CDR-L3": "QQYERLPLA", "log10 Kd, replicates": "0.36 / 0.00 / 0.35 / 0.45 / 0.19 / 0.24", "empty controls": "0/18"}
{"CDR-L1": "QVSNTNMQGHAMEHNVA", "CDR-L2": "EGTYAEE", "CDR-L3": "QQYARLPLQ", "log10 Kd, replicates": "1.18 / 0.94 / 0.39 / 0.45 / 1.14 / 0.98", "empty controls": "1/18 (1.64)"}
{"CDR-L1": "HISYMDGHDGGNIHNVA", "CDR-L2": "DTGVTSR", "CDR-L3": "QQYSRLPLI", "log10 Kd, replicates": "0.37 / 0.09 / 0.06 / 0.77 / 0.56 / 0.55", "empty controls": "0/18"}
{"CDR-L1": "QTTAFYEHGYDQQQAMA", "CDR-L2": "DVTMRDQ", "CDR-L3": "QQYERLPLS", "log10 Kd, replicates": "0.60 / 0.81 / 0.17 / 0.39 / 0.69 / 1.53", "empty controls": "1/18 (2.28)"}
{"CDR-L1": "KLTHLTFVLDRQKASVA", "CDR-L2": "DSERKAE", "CDR-L3": "QQYNRLPLT", "log10 Kd, replicates": "0.51 / 0.46 / 0.37 / 0.06 / 0.67 / 0.73", "empty controls": "0/18"}
{"CDR-L1": "RFEDSISEKEGRHNSIA", "CDR-L2": "EEHMRLD", "CDR-L3": "QYYGRLPLA", "log10 Kd, replicates": "1.65 / 1.34 / 1.48 / 1.32 / 2.03 / 1.69", "empty controls": "0/18"}

The 2 strongest on average among those seen in every replicate, once more:

{"CDR-L1": "SLRLKELGMSYNANQVA", "CDR-L2": "DSENRIK", "CDR-L3": "QQYYRLPLT", "log10 Kd, replicates": "-0.14 / -0.28 / 0.13 / -0.18 / -0.11 / -0.16", "empty controls": "0/18"}
{"CDR-L1": "IFEQGQWNGQQNQNAMA", "CDR-L2": "NGHTRMQ", "CDR-L3": "QQYFKLPLV", "log10 Kd, replicates": "0.36 / 0.33 / -0.07 / 0.25 / 0.16 / 0.35", "empty controls": "3/18 (1.87)"}

Empty control strains, which show no peptide, gave a signal in 4% of pairings with all light chain designs; the median was 2.64 and 95% of these signals were weaker than 1.59. No background was subtracted. For each scFv, signals with the empty controls are counted beside the result, with their mean in brackets.
Values of this round are not directly comparable with the first-round values of the same sequences.
The authors' rule: three or more of the six replicates give a measured affinity, fewer mean a poor binder.